Only a part is listed here, and it is no random draw. Results filed as inconclusive are left out. Calls of active or inactive are those of the source. Calls come from the whole dose curve; as a rule, active = well fitted inhibition curve with a large enough effect; inconclusive = small, poorly fitted or top-dose-only effect; inactive = no such curve, though single readings can be large or run the other way.
% is set by controls: 0 for no effect and ±100 for the full control effect.

This assay is described as follows: qHTS for Inhibitors of TGF-b. Note: nearly all actives have a fitted effect of over 65% in size. As to conditions: HepG2 CAGA-GFP TGF-b/SMAD3 reporter, GFP fluorescence, 18 h, TGF-beta stimulated, 500 pg/mL final; at 46.1 µM (top of the series). (In general: Quantitative high-throughput screening tests each substance at several concentrations.)
Consider `O=C(NCC1(N2CCOCC2)CCCCC1)c1ccc([N+](=O)[O-])cc1`, for which the activity, negative = inhibition is inactive: 3.96%.
On to `CC(C)(C)OC(=O)N1CCC(N(C(=O)c2ccccc2)c2ccc(Cl)cc2)CC1`, for which the activity, negative = inhibition is inactive: 0%.
Next, `N#Cc1ccc(C(=O)NCC2(N3CCCCC3)CCCCC2)cc1`: inactive: 22.6%; `O=C(NCC1(N2CCOCC2)CCCCC1)c1ccccc1[N+](=O)[O-]`: inactive: 8.54%.
Next, `CCOC(=O)C(CC)C1=NC(C)(C)Cc2ccccc21.O=[N+]([O-])c1cc([N+](=O)[O-])c(O)c([N+](=O)[O-])c1` (centres undefined): inactive: -0.835%; `c1ccc(CN2CCC(Nc3ccccc3)CC2)cc1`: inactive: -7.35%.
As to `CCCN1CCC(Nc2cc(OC)cc(OC)c2)CC1`, the activity, negative = inhibition was inactive: -3.19%.
`O=C(NCC1(N2CCOCC2)CCCCC1)c1ccccc1`: the activity, negative = inhibition is inactive: 17.3%.
On to `CN(C)C1(CNC(=O)c2cccc(C#N)c2)CCCCC1`, for which the activity, negative = inhibition is inactive: 4.12%.
For the compound `O=C(NCC1(N2CCOCC2)CCCCC1)c1cc(Br)ccc1Cl`, the activity, negative = inhibition was inactive: -2.1%.
Regarding `CCCCn1nnnc1C(c1ccccc1)N1CCC(n2c(=O)[nH]c3ccccc32)CC1` (centres undefined), the activity, negative = inhibition was inactive: -37.8%.
Take `COc1cc(C(=O)NCC2(N3CCOCC3)CCCCC2)cc(OC)c1C`: the activity, negative = inhibition is inactive: 2.48%.
Turning to `COc1ccc(C(=O)NCC2(N3CCOCC3)CCCCC2)cc1OC`, the activity, negative = inhibition is inactive: -0.514%.
Then `O=Cc1ccc(N(CCCl)CCCl)cc1`, with inactive: -7.69%.
In the case of `N/C(=N\O)c1c(N)no[n+]1[O-]`, the activity, negative = inhibition is inactive: -23.8%.
Next, `COc1cccc(C(c2nnnn2C(C)(C)C)N2CCC(n3c(=O)[nH]c4ccccc43)CC2)c1OC` (centres undefined): inactive: -29.8%; `CCOC(=O)N1CCC(Nc2ccc(C)cc2)CC1`: inactive: -9.16%; `O=C(OC1CN2CCC1CC2)C1c2ccccc2C=Cc2ccccc21` (centres undefined): inactive: 1.46%.
Next, `CCc1cc(C(=O)NCC2(N3CCCCC3)CCCCC2)sc1C`: inactive: -23.1%; `O=C(O)c1cccc(Nc2c([N+](=O)[O-])cc([N+](=O)[O-])cc2[N+](=O)[O-])c1`: inactive: -18.7%.
For `CCOc1ncccc1C(=O)NCC1(N2CCOCC2)CCCCC1`, the activity, negative = inhibition is inactive: -1.52%.
Take `CN1CCC(Nc2ccc(F)c(Cl)c2)CC1`: the activity, negative = inhibition was inactive: 0.189%.
Next, `ClCCN(CCCl)c1ccccc1`: inactive: 13.9%.
Next, `CCCOc1ccc(C(=O)NCC2(N(C)C)CCCCC2)cc1`: inactive: -4.6%; `CC(C)(C)OC(=O)N1CCC(Nc2ccccc2)CC1`: inactive: -2.45%; `O=C(O)C1(Nc2ccccc2)CCN(Cc2ccccc2)CC1`: inactive: -2.07%.
Then `ClCCN(CCCl)c1ccc(C=C2C=CC=C2)cc1`, with inactive: -5.66%; and `CCC(CO)(C(=O)OC1CN2CCC1CC2)c1ccccc1` (centres undefined), with inactive: 4.5%.
Take `COc1cc(C(=O)NCC2(N3CCOCC3)CCCCC2)cc(OC)c1OC`: the activity, negative = inhibition is inactive: 0.753%.
Next, `COc1cc(OC)cc(C(=O)NCC2(N3CCOCC3)CCCCC2)c1`: inactive: 6.94%; `COc1cccc(C(=O)N(c2cc(C)cc(C)c2)C2CCN(C(=O)OC(C)(C)C)CC2)c1`: inactive: 0%.
Next, `CN1CCC(Nc2ccc(Cl)cc2)CC1`: inactive: 10.8%; `COc1cc(OC)cc(C(=O)NCC2(N3CCCCC3)CCCCC2)c1`: inactive: -19.6%; `CC(=O)N(c1ccccc1)C1CCNCC1`: inactive: -3.28%.
As for `CN(C)C1(CNC(=O)c2ccc(C(C)(C)C)cc2)CCCCC1`, the activity, negative = inhibition was inactive: 18.2%.
Then `CCC(c1nnnn1C1CCCCC1)N1CCC(n2c(=O)[nH]c3ccccc32)CC1` (centres undefined), with inactive: 7.12%; and `Cc1ccc(NC2(C#N)CCN(Cc3ccccc3)CC2)cc1`, with inactive: -4.08%; and `Cc1ccc(C(=O)NCC2(N3CCCCC3)CCCCC2)o1`, with inactive: 11.9%.
Then `Fc1ccccc1NC1CCN(Cc2ccccc2)CC1`, with inactive: 2.34%; and `Cc1ccccc1NC1(C#N)CCN(Cc2ccccc2)CC1`, with inactive: 0%.
Consider `CC(C)(C)n1nnnc1C(c1ccnc2ccccc12)N1CCC(n2c(=O)[nH]c3ccccc32)CC1` (centres undefined), for which the activity, negative = inhibition is inactive: -6.63%.
As to `COc1ccc(C(c2nnnn2C2CCCCC2)N2CCC(n3c(=O)[nH]c4ccccc43)CC2)cc1` (centres undefined), the activity, negative = inhibition was inactive: -12.3%.
Take `CCN1CCC(Nc2cccc(F)c2)CC1`: the activity, negative = inhibition is inactive: 0%.
Consider `CC(C)(C)c1ccc(C(=O)NCC2(N3CCOCC3)CCCCC2)cc1`, for which the activity, negative = inhibition was inactive: 25%.
Next, `O=C(NCC1(N2CCCCC2)CCCCC1)c1ccco1`: inactive: 11.4%; `Cn1c(=O)[nH]cc(N(CCCl)CCCl)c1=O`: inactive: 3.43%.
Then `CN(C)c1ccc(C(=O)NCC2(N3CCCCC3)CCCCC2)cc1`, with inactive: -8.84%; and `Cc1ccccc1C(=O)NCC1(N(C)C)CCCCC1`, with inactive: -1.78%; and `CCOc1ccc(C)cc1CN(CCCl)CCCl`, with inactive: 5.1%.
Then `CC(C)(C)n1nnnc1C(c1ccccc1)N1CCC(n2c(=O)[nH]c3ccccc32)CC1` (centres undefined), with inactive: -22.4%; and `O=C(NCC1(N2CCOCC2)CCCCC1)c1ccc(Cl)cc1`, with inactive: -2.43%.
As to `O=C1CCN(Cc2ccccc2)CC1`, the activity, negative = inhibition was inactive: 25.2%.
As to `O=C(NCC1(N2CCCCC2)CCCCC1)c1ccc(F)cc1`, the activity, negative = inhibition was inactive: 0.0911%.
For the compound `O=P1(N(CCCl)CCCl)SCCCS1`, the activity, negative = inhibition was inactive: 8.02%.
Next, `CCCCOc1ccc(C(=O)NCC2(N3CCOCC3)CCCCC2)cc1`: inactive: -15.5%.
Next, `COc1ccc(NC2CCN(CCc3ccccc3)CC2)c(OC)c1`: inactive: 4.69%; `CCOC(=O)N1CCC(Nc2ccc(F)cc2)CC1`: inactive: 8.53%; `COc1ccccc1C(=O)NCC1(N2CCOCC2)CCCCC1`: inactive: -7.08%.
As for `COc1cc(C(=O)NCC2(N(C)C)CCCCC2)ccc1OC(F)F`, the activity, negative = inhibition is inactive: 8.17%.
Then `CCOC(=O)N1CCC(Nc2cccc(C)c2)CC1`, with inactive: -13.7%; and `O=C(NCC1(N2CCCCC2)CCCCC1)c1ccc(=O)[nH]c1`, with inactive: 2.41%; and `CCCCn1nnnc1C(CC)N1CCC(n2c(=O)[nH]c3ccccc32)CC1` (centres undefined), with inactive: -2.76%.
Next, `O=C(NCC1(N2CCCCC2)CCCCC1)c1cccs1`: inactive: 23.5%; `COc1ccc(C(=O)NCC2(N3CCCCC3)CCCCC2)cc1`: inactive: -17.9%.

Values taken from PubChem BioAssay AID588855 (National Center for Advancing Translational Sciences (NCATS), 2011).
